{"sequences": {"note": "Chains of the proteins cited; added tags and fusions are not shown.", "UniProt P25929, whole entry": "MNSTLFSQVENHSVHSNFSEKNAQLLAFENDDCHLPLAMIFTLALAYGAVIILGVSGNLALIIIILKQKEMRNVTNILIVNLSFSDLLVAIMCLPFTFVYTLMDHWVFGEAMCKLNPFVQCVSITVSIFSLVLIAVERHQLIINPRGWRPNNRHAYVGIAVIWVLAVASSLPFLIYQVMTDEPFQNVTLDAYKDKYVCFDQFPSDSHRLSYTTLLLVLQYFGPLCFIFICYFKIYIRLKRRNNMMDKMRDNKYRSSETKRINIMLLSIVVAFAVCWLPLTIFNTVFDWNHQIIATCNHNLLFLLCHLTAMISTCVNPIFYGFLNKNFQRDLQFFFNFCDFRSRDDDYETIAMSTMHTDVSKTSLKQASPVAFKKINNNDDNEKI"}, "source": "PubChem BioAssay AID1304", "about": "(The Scripps Research Institute Molecular Screening Center, 2008)", "note": "Only a part is listed here, and it is no random draw. Some tests of the compounds listed are not included; inactive here does not mean inactive elsewhere. The source made the active and inactive calls. Cut-off read from the data, not from the text of the source: active = activation above about 33% (passing the limit was not always enough); inactive = the rest.", "data": [{"target": "Neuropeptide Y receptor type 1 (Homo sapiens) (UniProt P25929)", "assay": "NPY-Y1 receptor potentiators or agonists, primary screen, cell-based (AID 1304);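 note: cells stimulated with NPY at EC10 then isoproterenol at EC100; 0% = low agonist plus stimulus and 100% = saturating agonist plus stimulus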", "settings": "NPY-Y1 expressing cells, potentiator/agonist activation; at 3.6 µM; active compounds read high", "values": [{"compound": "CN(C)c1cccc(C(=O)NCC2(N(C)C)CCCCC2)c1", "activation": "inactive: 12%"}, {"compound": "COc1ccc(Br)c(C(=O)NCC2(N3CCCCC3)CCCCC2)c1", "activation": "inactive: -9.06%"}, {"compound": "O=C(OC1CN2CCC1CC2)C(CO)(c1ccccc1)c1ccccc1", "note": "(stereo unspecified)", "activation": "inactive: -1.79%"}, {"compound": "COc1cccc(C(=O)NCC2(N3CCCCC3)CCCCC2)c1", "activation": "inactive: 10.9%"}, {"compound": "CCN1CCCC(OC(=O)C2(O)c3ccccc3C=Cc3ccccc32)C1", "note": "(stereo unspecified)", "activation": "inactive: 3.56%"}, {"compound": "C=CCN1CCN(CCOC(=O)C(O)(c2ccccc2)c2ccccc2)CC1", "activation": "inactive: -5.95%"}, {"compound": "CN(C)C1CCCC1OC(=O)C(O)(c1ccccc1)c1ccccc1", "note": "(stereo unspecified)", "activation": "inactive: 14.1%"}, {"compound": "Cc1ccccc1C(=O)NCC1(N2CCCCC2)CCCCC1", "activation": "inactive: -15%"}, {"compound": "CC(C)N1C(=O)CC2(CCN(CCOC(=O)C(O)(c3ccccc3)c3ccccc3)CC2)C1=O", "activation": "inactive: 2.48%"}, {"compound": "CCN(CC)CC(C)C(C)OC(=O)C(O)(c1ccccc1)c1ccccc1", "note": "(stereo unspecified)", "activation": "inactive: 9.04%"}, {"compound": "O=C(NCC1(N2CCCCC2)CCCCC1)c1cc([N+](=O)[O-])ccc1Cl", "activation": "inactive: 5.56%"}]}]}
